We go through six variants from IntAct's records for PubMed 35512704.

The labels stand for the following.
B1: RAC-alpha serine/threonine-protein kinase (Homo sapiens), P31749 (parent)
chain: MSDVAIVKEGWLHKRGEYIKTWRPRYFLLKNDGTFIGYKERPQDVDQREAPLNNFSVAQCQLMKTERPRPNTFIIRCLQWTTVIERTFHVETPEEREEWTTAIQTVADGLKKQEEEEMDFRSGSPSDNSGAEEMEVSLAKPKHRVTMNEFEYLKLLGKGTFGKVILVKEKATGRYYAMKILKKEVIVAKDEVAHTLTENRVLQNSRHPFLTALKYSFQTHDRLCFVMEYANGGELFFHLSRERVFSEDRARFYGAEIVSALDYLHSEKNVVYRDLKLENLMLDKDGHIKITDFGLCKEGIKDGATMKTFCGTPEYLAPEVLEDNDYGRAVDWWGLGVVMYEMMCGRLPFYNQDHEKLFELILMEEIRFPRTLGPEAKSLLSGLLKKDPKQRLGGGSEDAKEIMQHRFFAGIVWQHVYEKKLSPPFKPQVTSETDTRYFDEEFTAQMITITPPDQDDSMECVDSERRPHFPQFSYSASGTA
partner: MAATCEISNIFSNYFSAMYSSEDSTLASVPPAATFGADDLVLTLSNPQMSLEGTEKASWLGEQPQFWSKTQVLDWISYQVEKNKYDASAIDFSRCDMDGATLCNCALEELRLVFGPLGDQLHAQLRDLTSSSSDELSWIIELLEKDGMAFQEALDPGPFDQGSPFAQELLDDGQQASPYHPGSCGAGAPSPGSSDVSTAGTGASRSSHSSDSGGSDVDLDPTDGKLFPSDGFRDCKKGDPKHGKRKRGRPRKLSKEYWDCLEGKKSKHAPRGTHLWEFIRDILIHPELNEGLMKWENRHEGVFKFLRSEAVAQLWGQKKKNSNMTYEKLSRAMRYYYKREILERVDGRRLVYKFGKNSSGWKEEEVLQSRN
B2: RAC-alpha serine/threonine-protein kinase (Homo sapiens), P31749 (parent)
chain: B1 chain
partner: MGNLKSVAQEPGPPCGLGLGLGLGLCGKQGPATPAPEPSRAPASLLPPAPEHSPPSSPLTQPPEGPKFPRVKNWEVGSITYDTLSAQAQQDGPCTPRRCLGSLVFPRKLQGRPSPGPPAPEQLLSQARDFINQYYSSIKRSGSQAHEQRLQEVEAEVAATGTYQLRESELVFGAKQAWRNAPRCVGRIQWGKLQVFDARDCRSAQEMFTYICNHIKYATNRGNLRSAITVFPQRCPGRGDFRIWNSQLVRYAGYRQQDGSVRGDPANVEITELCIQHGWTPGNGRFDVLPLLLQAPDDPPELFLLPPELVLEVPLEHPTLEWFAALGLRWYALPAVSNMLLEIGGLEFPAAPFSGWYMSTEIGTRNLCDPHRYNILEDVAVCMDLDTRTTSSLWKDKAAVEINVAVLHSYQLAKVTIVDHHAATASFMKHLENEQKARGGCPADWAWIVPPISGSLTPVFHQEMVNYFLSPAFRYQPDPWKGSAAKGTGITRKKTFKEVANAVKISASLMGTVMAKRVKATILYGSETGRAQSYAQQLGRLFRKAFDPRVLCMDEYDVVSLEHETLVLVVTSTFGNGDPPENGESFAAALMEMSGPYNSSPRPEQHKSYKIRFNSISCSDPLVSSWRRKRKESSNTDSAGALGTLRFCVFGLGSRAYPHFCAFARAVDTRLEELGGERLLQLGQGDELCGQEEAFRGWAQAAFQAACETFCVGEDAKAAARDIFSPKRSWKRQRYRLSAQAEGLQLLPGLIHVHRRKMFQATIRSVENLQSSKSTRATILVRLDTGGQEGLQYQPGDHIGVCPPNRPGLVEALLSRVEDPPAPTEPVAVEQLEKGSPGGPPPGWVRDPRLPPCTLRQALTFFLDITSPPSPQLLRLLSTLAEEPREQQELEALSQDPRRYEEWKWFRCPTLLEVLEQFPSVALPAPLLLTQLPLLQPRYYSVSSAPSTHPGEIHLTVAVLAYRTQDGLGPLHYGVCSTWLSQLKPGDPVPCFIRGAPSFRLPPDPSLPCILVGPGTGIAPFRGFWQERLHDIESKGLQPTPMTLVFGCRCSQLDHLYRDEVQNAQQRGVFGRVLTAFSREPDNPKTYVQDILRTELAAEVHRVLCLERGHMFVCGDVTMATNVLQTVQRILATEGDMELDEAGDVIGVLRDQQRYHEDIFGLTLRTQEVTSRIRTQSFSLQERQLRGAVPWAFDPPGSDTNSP
B3: RAC-alpha serine/threonine-protein kinase (Homo sapiens), P31749 (parent)
chain: B1 chain
partner: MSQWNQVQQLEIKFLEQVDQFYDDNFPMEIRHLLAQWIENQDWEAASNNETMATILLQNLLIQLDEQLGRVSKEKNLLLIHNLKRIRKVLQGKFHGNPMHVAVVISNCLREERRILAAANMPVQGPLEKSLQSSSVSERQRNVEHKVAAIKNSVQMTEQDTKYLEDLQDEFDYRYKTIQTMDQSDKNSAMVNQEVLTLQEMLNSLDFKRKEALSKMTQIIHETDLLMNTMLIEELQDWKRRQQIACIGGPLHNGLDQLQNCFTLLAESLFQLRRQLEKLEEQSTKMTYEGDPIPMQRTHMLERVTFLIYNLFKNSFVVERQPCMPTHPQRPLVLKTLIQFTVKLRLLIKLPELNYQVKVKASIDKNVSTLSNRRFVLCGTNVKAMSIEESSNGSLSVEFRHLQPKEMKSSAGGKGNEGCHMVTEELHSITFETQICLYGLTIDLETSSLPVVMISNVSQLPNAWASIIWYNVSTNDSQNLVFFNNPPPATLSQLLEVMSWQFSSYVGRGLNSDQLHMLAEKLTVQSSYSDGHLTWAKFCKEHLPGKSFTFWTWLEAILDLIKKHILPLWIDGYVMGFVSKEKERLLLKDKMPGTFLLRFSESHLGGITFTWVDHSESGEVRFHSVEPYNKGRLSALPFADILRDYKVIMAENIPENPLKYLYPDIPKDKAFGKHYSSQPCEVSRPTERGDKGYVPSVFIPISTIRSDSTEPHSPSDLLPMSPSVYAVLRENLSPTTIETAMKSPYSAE
B4: RAC-alpha serine/threonine-protein kinase (Homo sapiens), P31749 (parent)
chain: B1 chain
partner: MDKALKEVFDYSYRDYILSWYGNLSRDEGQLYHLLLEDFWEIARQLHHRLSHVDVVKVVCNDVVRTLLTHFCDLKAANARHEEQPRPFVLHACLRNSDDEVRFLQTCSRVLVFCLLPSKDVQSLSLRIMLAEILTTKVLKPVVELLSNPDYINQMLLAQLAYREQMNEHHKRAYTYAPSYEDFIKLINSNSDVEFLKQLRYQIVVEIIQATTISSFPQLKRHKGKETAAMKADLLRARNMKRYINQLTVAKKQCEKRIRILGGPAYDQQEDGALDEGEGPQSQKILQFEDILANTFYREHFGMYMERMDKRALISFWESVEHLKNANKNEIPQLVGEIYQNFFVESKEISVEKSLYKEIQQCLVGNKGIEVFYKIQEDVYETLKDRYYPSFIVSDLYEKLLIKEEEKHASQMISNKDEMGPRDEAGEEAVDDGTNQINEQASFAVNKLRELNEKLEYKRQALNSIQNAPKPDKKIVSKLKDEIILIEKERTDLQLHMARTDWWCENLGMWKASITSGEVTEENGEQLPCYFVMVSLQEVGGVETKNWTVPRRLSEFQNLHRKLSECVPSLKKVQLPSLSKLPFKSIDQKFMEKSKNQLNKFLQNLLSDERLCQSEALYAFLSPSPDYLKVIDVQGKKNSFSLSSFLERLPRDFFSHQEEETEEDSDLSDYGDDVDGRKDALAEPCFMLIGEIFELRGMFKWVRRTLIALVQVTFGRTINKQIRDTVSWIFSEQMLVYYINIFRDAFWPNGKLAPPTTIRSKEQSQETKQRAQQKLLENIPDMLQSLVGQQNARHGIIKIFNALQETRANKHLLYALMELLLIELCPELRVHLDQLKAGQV
B5: RAC-alpha serine/threonine-protein kinase (Homo sapiens), P31749 (parent)
chain: B1 chain
partner: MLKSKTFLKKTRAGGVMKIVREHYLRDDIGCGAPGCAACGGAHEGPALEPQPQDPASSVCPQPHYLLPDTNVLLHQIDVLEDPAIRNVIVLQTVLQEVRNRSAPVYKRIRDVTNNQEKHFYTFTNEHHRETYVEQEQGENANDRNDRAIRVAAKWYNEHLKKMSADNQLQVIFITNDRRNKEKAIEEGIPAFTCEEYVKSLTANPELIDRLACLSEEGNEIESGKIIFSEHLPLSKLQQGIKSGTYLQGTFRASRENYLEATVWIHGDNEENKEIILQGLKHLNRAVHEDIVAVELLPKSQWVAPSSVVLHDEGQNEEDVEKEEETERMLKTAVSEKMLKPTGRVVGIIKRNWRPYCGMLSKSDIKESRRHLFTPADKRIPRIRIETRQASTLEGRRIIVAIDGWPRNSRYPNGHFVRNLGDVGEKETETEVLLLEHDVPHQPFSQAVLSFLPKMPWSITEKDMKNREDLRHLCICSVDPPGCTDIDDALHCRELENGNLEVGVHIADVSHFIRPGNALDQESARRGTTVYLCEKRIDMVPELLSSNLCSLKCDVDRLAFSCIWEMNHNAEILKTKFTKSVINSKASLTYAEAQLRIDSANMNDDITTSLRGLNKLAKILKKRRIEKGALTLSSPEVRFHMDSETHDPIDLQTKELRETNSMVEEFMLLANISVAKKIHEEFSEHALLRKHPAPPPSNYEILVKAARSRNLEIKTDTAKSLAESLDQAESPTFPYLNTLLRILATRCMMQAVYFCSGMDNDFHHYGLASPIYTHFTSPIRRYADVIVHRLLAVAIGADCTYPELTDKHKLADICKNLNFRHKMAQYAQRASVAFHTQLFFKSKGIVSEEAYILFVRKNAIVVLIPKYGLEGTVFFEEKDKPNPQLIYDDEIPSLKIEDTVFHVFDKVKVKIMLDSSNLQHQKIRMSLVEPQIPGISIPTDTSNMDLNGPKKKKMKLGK
B6: RAC-alpha serine/threonine-protein kinase (Homo sapiens), P31749 (parent)
chain: B1 chain
partner: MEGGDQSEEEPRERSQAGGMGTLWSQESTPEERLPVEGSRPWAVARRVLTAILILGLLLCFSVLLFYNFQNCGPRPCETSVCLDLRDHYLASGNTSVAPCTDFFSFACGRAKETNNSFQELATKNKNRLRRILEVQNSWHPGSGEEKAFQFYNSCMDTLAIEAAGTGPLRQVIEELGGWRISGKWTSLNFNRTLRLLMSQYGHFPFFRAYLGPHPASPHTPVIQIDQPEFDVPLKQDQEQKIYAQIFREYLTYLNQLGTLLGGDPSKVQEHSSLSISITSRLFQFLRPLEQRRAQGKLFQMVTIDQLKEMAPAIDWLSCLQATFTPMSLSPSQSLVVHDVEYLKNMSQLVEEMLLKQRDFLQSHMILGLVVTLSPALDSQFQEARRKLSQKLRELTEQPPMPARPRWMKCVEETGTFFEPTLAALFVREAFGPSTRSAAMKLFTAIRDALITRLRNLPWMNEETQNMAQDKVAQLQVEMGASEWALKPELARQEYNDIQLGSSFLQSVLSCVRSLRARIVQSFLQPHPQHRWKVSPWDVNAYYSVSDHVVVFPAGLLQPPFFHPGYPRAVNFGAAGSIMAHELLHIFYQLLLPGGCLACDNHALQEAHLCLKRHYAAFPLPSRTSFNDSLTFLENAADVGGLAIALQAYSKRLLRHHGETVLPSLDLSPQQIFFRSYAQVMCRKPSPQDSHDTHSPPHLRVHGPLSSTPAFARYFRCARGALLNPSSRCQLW

Variants of B1 are the subject of the first assay. Particulars: with elf3_human ELF3, P78545.
Take E17K: the “effect of a mutation on the interaction” value is recorded as “with no effect”.

Variants of B2 are the subject of the next assay. Particulars: with nos3_human NOS3, P29474.
As to E17K, the “effect of a mutation on the interaction” value is given as “causing an interaction”.

In the next assay the parent is B3. Particulars: with stat4_human STAT4, Q14765.
Take E17K: the “effect of a mutation on the interaction” value is on record as “with no effect”.

Another assay covers variants of B4. Particulars: with snx25_human SNX25, Q9H3E2.
Consider E17K, for which the “effect of a mutation on the interaction” value was “causing an interaction”.

In another assay the parent is B5. Particulars: with rrp44_human DIS3, Q9Y2L1.
With E17K, the “effect of a mutation on the interaction” value was “with no effect”.

The next assay covers variants of B6. Particulars: with kell_human KEL.
In the case of E17K, the “effect of a mutation on the interaction” value is on record as “with no effect”.
